# Measurements as given in PubChem BioAssay AID686978 (National Center for Advancing Translational Sciences (NCATS), 2013).
# The entries are a selection whose mix differs from that of the whole data set. Inconclusive results are not listed. Activity calls are given as the source filed them. Calls follow the shape of the dose curve; as a rule, active = well fitted inhibition curve with a large enough effect; inconclusive = small, poorly fitted or top-dose-only effect; inactive = flat fitted curve, though single readings scatter.
# Assay: qHTS for Inhibitors of human tyrosyl-DNA phosphodiesterase 1 (TDP1): qHTS in cells in absence of CPT; also: nearly all actives have a fitted effect of over 55% in size
# Details: DT40 Tdp1-/- hTDP1 cells, no CPT, ATP luminescence, 48 h; series mostly up to 46.2 µM; activity change, negative = growth inhibition: at the top concentration
# % is scaled to controls: 0 for no effect and ±100 for the full control effect; potency is read from the fitted curve at half-maximal effect.
SMILES,"activity change, negative = growth inhibition",Potency
C(Cc1nn[nH]n1)Cc1nn[nH]n1,inactive: -9.98%,–
Nc1ccc([As](=O)(O)c2ccc([N+](=O)[O-])cc2)cc1,inactive: -14.3%,–
O=C(OC1CN2CCC1CC2)c1cccc(Cl)c1 (stereo not given),inactive: 4.96%,–
O=[N+]([O-])c1ccc(O)c(/C=N/Nc2ccc([N+](=O)[O-])cc2[N+](=O)[O-])c1,–,active: 2.59 µM
O=[N+]([O-])c1ncn(CCn2cnc([N+](=O)[O-])n2)n1,inactive: 24.9%,–
CC(=O)NC(SC(=S)N(C)C)C(Cl)(Cl)Cl (stereo not given),–,active: 0.82 µM
O=[As](O)(c1ccccc1)c1ccc(O)cc1,inactive: -0.375%,–
C[C@H]1OP(=O)(Oc2ccccc2)[C@H](O)[C@H](O)[C@H]1N=[N+]=[N-] (stereo not given in full),inactive: -0.17%,–
O=P(Nc1nc2ccccc2s1)(c1ccccc1)c1ccccc1,inactive: -23.4%,–
CN(C(=O)Cc1ccccc1)[C@H]1CC[C@@]2(CCCO2)C[C@@H]1N1CCCC1,inactive: -29.4%,–
Nc1ccc(CCCCOc2ccccc2)cc1,inactive: -11.5%,–
O=P(Nc1ccccn1)(c1ccc(Br)cc1)c1ccc(Br)cc1,–,active: 20.6 µM
CN(C)C1(CNC(=O)c2ccc(Cl)c(S(N)(=O)=O)c2)CCCCC1,inactive: 3.16%,–
COc1cccc([N+](=O)[O-])c1[N+](=O)[O-],–,active: 11.2 µM
c1nnnn1CCn1cnnn1,inactive: 6.14%,–
CC(C)C(=O)NC(Sc1ccccc1)C(Cl)(Cl)Cl (stereo not given),inactive: -26%,–
O=P(Nc1nccs1)(c1ccccc1)c1ccccc1,inactive: 4.24%,–
CC(=O)Nc1ccc(Oc2c([N+](=O)[O-])cc([N+](=O)[O-])cc2[N+](=O)[O-])cc1,–,active: 11.6 µM
CC(=O)Nc1ccc([As](=O)(O)O)c(O)c1,inactive: 4.13%,–
COC(=O)C1(C)COP(=O)(NCc2ccccc2)OC1 (stereo not given),inactive: -2.35%,–
CC(=O)c1ccc(N2CC2c2ccncc2)cc1 (stereo not given),inactive: -23.2%,–
N#C/C(=C\c1ccc(N(CCBr)CCBr)cc1)C(N)=O,–,active: 1.16 µM
C[C@H]1OP(=O)(Oc2ccccc2)C[C@@H]2O[C@@H]21 (stereo not given in full),inactive: 0.703%,–

SMILES,"activity change, negative = growth inhibition",Potency
C[C@@H]1C=CCP(=O)(Oc2ccccc2)O1 (stereo not given in full),inactive: 10.5%,–
CCc1cc(O)c([N+](=O)[O-])c(C)c1[N+](=O)[O-],inactive: -2.77%,–
CC(C)(C)C(=O)NC(Sc1ccccc1)C(Cl)(Cl)Cl (stereo not given),inactive: 1.15%,–
CCOc1ccc(C2=NCC(CBr)S2)cc1 (stereo not given),inactive: -15.8%,–
O=P1(Nc2nc3ccc(Cl)cc3s2)COc2ccccc2O1 (stereo not given),inactive: -25.8%,–
O=c1c2cc([N+](=O)[O-])ccc2[nH]c2c([N+](=O)[O-])cc([N+](=O)[O-])cc12,–,active: 0.517 µM
CN(C)C(=O)Oc1noc2ccccc12,inactive: 9.17%,–
CC(NC(=O)COC(=O)C(O)(c1ccccc1)c1ccccc1)c1ccccc1 (stereo not given),inactive: -28.2%,–
Cc1ccccc1OP(=O)(Nc1ccccn1)Oc1ccccc1C,–,active: 20.6 µM
COC(=O)c1cc2c(s1)N=C(c1ccccc1)N(C)P2(=O)N1CCOCC1 (stereo not given),inactive: -8.66%,–
CCC(=O)N1C2C3N(C(=O)CC)C1C1N(C(=O)CC)C(C(N1C(=O)CC)N3C(=O)CC)N2C(=O)CC,inactive: -1.8%,–
O=C(OC1CN2CCC1CC2)c1ccccc1 (stereo not given),–,inactive
O=P1(N(CCCl)CCCl)OCCC2CCCCN21 (stereo not given),inactive: -8.55%,–
COC1C(OC(=O)/C=C/C=C/C=C/C=C/C(=O)O)CCC2(CO2)C1C1(C)OC1CC=C(C)C (stereo not given) (tested in a mixture with another compound),–,active: 0.0366 µM
CCNC(=S)/N=C(\N)N[N+](=O)[O-],inactive: -12.2%,–
O=C(NC1CCS(=O)(=O)C1)NP(=S)(Oc1ccccc1)Oc1ccccc1 (stereo not given),inactive: -13.8%,–
O=[N+]([O-])c1cc([N+](=O)[O-])c2nc[nH]c2c1,–,active: 0.112 µM
Cc1ccc(NP(=O)(Oc2cccc(C)c2)Oc2cccc(C)c2)nc1,inactive: -25.6%,–
c1ccc(-c2nn[nH]n2)c(-c2nn[nH]n2)c1,inactive: 9.95%,–
CCN(N=Nc1nonc1N)c1nonc1N,inactive: -11.3%,–
Nc1cccc2ccc([As](=O)(O)O)cc12,inactive: -12.5%,–
Cc1ccc(NP(=O)(Oc2ccccc2F)Oc2ccccc2F)nc1,inactive: -3.72%,–
Cc1cc(SC(NC(=O)c2ccc(F)cc2)C(Cl)(Cl)Cl)ncn1 (stereo not given),–,active: 13 µM

SMILES,"activity change, negative = growth inhibition",Potency
CCOP(=O)(Nc1ccccc1)OCC,inactive: -0.789%,–
CCCC1OP(N)(=O)OCC1CC (stereo not given),inactive: -1.86%,–
CC(=O)Nc1ccc([As](=O)(O)O)cc1,inactive: -14.9%,–
O=C(O)c1ccccc1[As](=O)(O)O,inactive: -6.77%,–
CN(C)P(=O)(N(C)C)n1c(Nc2ccccc2)nnc1-c1ccccc1,–,active: 16.4 µM
O=[N+]([O-])C1C(O)C(O)C([N+](=O)[O-])C(O)C1O (stereo not given),inactive: -3.96%,–
Nc1cc(N)c2nonc2c1[N+](=O)[O-],inactive: 0.255%,–
CC(C)CC(=O)NC(Sc1ccc(Cl)cc1)C(Cl)(Cl)Cl (stereo not given),inactive: -24.9%,–
Oc1ccccc1CNc1ccccn1,inactive: -5.58%,–
Cc1ccc(OP(=O)(Nc2nccs2)Oc2ccc(C)cc2)cc1,inactive: -1.91%,–
CN1CCCC(OC(=O)C(c2ccccc2)c2ccccc2)C1 (stereo not given),inactive: -9.62%,–
CCNC(C)Cc1ccc2c(c1)OCO2 (stereo not given),inactive: -19.9% [at 92.5 µM],–
NC(=O)c1cc([N+](=O)[O-])cc([N+](=O)[O-])c1N,inactive: 2.19%,–
Cc1ccc(N/C(=N/P(=O)(N2CCOCC2)N2CCOCC2)N2CCOCC2)cc1,inactive: -5.04%,–
CN(C)C(=O)OCCc1n(C)cc[n+]1C,inactive: 0.217%,–
CC(C)c1nc(Nc2ccccc2)n(P(=O)(N(C)C)N(C)C)n1,–,active: 23.1 µM
COc1cc([N+](=O)[O-])c([N+](=O)[O-])cc1OC,–,active: 12.6 µM
CC(C)=N/N=C(\N)N[N+](=O)[O-],inactive: -1.94%,–
CC(=O)C1=CCCC2CCC1N2 (stereo not given),inactive: 0.805%,–
c1cc(-c2nn[nH]n2)ccc1-c1nn[nH]n1,inactive: 6.52%,–
Nc1ccc([As](=O)(O)c2ccc(N)cc2)cc1,inactive: 0.288%,–
CCN(/C(=N/P(=O)(N1CCOCC1)N1CCOCC1)N1CCOCC1)c1ccc(OC)cc1,inactive: -12.8%,–
O=[N+]([O-])c1cccc2n[nH]nc12,inactive: -13%,–

SMILES,"activity change, negative = growth inhibition",Potency
CC(=O)N1C2C3N(C(C)=O)C1C1N(C(C)=O)C(C(N1C(C)=O)N3C(C)=O)N2C(C)=O,inactive: -11.7%,–
Cc1ccc(NP(=O)(Oc2ccccc2)Oc2ccccc2)nc1,inactive: -11.1%,–
COC(=O)C1(C)COP(=O)(Nc2ccccc2)OC1 (stereo not given),inactive: -8.53%,–
O=C(O)CNc1ccc([As](=O)(O)O)cc1,inactive: -5.04%,–
CC(C)(C)C(=O)NC(Sc1ccncn1)C(Cl)(Cl)Cl (stereo not given),inactive: -17.9%,–
O=[N+]([O-])c1ncn(CCn2ncnc2[N+](=O)[O-])n1,inactive: -5.32%,–
O=P(/N=c1/nc(-c2ccccc2)n(-c2ccccc2)s1)(Nc1ccccc1)Nc1ccccc1,–,active: 11.2 µM
O=C(Nc1cc([As](=O)(O)O)ccc1O)c1ccccc1,inactive: -1.97%,–
Cc1cc(C=O)ccc1N(CCCl)CCCl,inactive: -29.3%,–
O=P1(N(CCCl)CCCl)OCCCS1 (stereo not given),inactive: -10.5%,–
O=[N+]([O-])c1ccc(Nc2ccc(Oc3ccc([N+](=O)[O-])cc3[N+](=O)[O-])cc2)c([N+](=O)[O-])c1,–,active: 4.61 µM
Cc1cc(SC(NC=O)C(Cl)(Cl)Cl)ncn1 (stereo not given),–,active: 18.4 µM
CCOC(=O)Nc1cccc([As](=O)(O)O)c1,inactive: -5.25%,–
COP(=O)(OC)N1CC1c1ccccc1 (stereo not given),inactive: -4.05%,–
CC1CCNP(=O)(N(CCCl)CCCl)O1 (stereo not given),inactive: 1.72%,–
CCOC(=O)Nc1ccc([As](=O)(O)O)c(O)c1,inactive: 16.5%,–
O=C(O)C(O)c1ccc(N(CCCl)CCCl)cc1 (stereo not given),–,active: 4.11 µM
CCC(C)N(CC(C)C)C(=S)SC(NC(C)=O)C(Cl)(Cl)Cl (stereo not given),–,active: 0.651 µM
CSc1ccc(Nc2c([N+](=O)[O-])cc([N+](=O)[O-])cc2[N+](=O)[O-])cc1,–,active: 3.26 µM
O=C(OC1CN2CCC1CC2)c1cccc([N+](=O)[O-])c1 (stereo not given),inactive: -1.17%,–
O=C(Nc1ccncc1[N+](=O)[O-])c1ccc([N+](=O)[O-])cc1[N+](=O)[O-],–,active: 13 µM
O=C(COc1ccccc1)OC1CN2CCC1CC2 (stereo not given),inactive: -2.93%,–
O=C(O)C(=O)c1ccc(N(CCCl)CCCl)cc1,–,active: 9.2 µM

SMILES,"activity change, negative = growth inhibition",Potency
COC(=O)C1(C)COP(=O)(N2CCCC2)OC1 (stereo not given),inactive: 16.4%,–
COP1(=S)c2c(C)nn(CCC#N)c2N=C(c2ccc(F)cc2)N1C (stereo not given),inactive: -19.2%,–
COc1ccc(N/C(=N/P(=O)(N2CCOCC2)N2CCOCC2)N2CCOCC2)cc1,inactive: 15.2%,–
COc1cc(I)ccc1[As](=O)(O)O,inactive: -28.7%,–
O=P1(N(CCCl)CCCl)OCCCN1CCCl (stereo not given),inactive: 0.416%,–
Cc1cc(=O)[nH]c(N[N+](=O)[O-])n1,inactive: -16.5%,–
O=[N+]([O-])c1cc([N+](=O)[O-])c(-c2ccn[nH]2)s1,–,active: 9.2 µM
CC(C)NC(=O)NP(=O)(Oc1ccccc1)Oc1ccccc1,inactive: -2.3%,–
O=C(OC1CN2CCC1CC2)c1cccc2[nH]cnc12 (stereo not given),inactive: 1.73%,–
CCN(CC)C(=S)SC(NC=O)C(Cl)(Cl)Cl (stereo not given),–,active: 3.26 µM
COC(=O)C1(C)COP(=O)(N2CCCCCC2)OC1 (stereo not given),inactive: 0.0874%,–
ClCCSc1nnc(-c2cccnc2)o1,inactive: -6.4%,–
O=Cc1ccc(NCCCl)cc1,–,active: 7.94 µM
ClCCN(CCCl)c1ccc(CC2C=CC=C2)cc1,–,active: 2 µM
[N-]=[N+]=NC1CCCCC1NC(=O)c1cc([N+](=O)[O-])cc([N+](=O)[O-])c1 (stereo not given),–,active: 7.31 µM
Cc1ccc(OP(=O)(Nc2ccc([N+](=O)[O-])cn2)Oc2ccc(C)cc2)cc1,inactive: -19.1%,–
O=[N+]([O-])c1ccc(-c2cc([N+](=O)[O-])c(O)c([N+](=O)[O-])c2)cc1,inactive: -4.57%,–
COc1cc(C(=O)NCC2(N3CCOCC3)CCCCC2)ccc1OCC(C)C,–,active: 4.11 µM
O=[As](O)(c1ccc(O)cc1)c1ccccc1O,inactive: 1.36%,–
C[As](=O)(O)c1cccc(C(=O)O)c1,inactive: -37.6%,–
CN(C(=O)Cc1ccc(Cl)c(Cl)c1)[C@H]1CC[C@@]2(CCCO2)C[C@@H]1N1CCCC1,–,inactive
O=[N+]([O-])c1ccc2c(c1)nnn2O,inactive: -14.9%,–
CN(C)C(=O)c1cc([N+](=O)[O-])cc2c1-c1c(cc([N+](=O)[O-])cc1[N+](=O)[O-])C2=O,–,active: 1.84 µM
